Results on one molecule are retold here after PubChem BioAssay AID588398 (Broad Institute, 2011).

The list shows a part of the results, in another mix than the full data. Entries with a potency or affinity are not part of this list. Results filed as inconclusive are left out. Calls of active or inactive are those of the source.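 The calls were made as follows: active = pathway reporter half-maximal dose under half the control reporter's, or control reporter unaffected while pathway reporter is inhibited; inconclusive = either signal flat at 30 to 70% inhibition or poorly fitted; inactive = the rest.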

The nature of this assay: TES1-eGFP NF-kB reporter inhibition versus Tet-On dsRED, dose response, selectivity assay for LMP1 NF-kB inhibitor project, imaging, HEK293T, dual-color eGFP/dsRED, cherry-picks (AID 588398).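 Also: 0% = median of neutral control wells and -100% = median of MG132 positive control wells.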 The conditions noted are these: HEK293T Tet-On dsRED counter-screen channel, 48 h; at 19.5 µM (top of the series).
For the molecule `COC(=O)C1C2CC[C@@H](CC1OC(=O)c1ccccc1)N2` (stereo partly specified), the activity change, negative = inhibition was inactive: 5.47%.
